# Measured values from paper PMC9574855 (Journal of Medicinal Chemistry, 2022).
# System: MHV-nLuc virus
# Details: DBT cells
compound,measurement,value
"CN(C)CC#Cc1ccc2[nH]c3c(c2c1)-c1nc(N)ncc1CCC3 [compound 17, 11-(3-(Dimethylamino)prop-1-yn-1-yl)-5,6,7,8-tetrahydropyrimido[4′,5′:3,4]cyclohepta[1,2-b]indol-2-amine]","inhibition of viral replication (MHV-nLuc), in words",inhibited viral replication
